By UniProt entry, the sequences of proteins in these tests, tags left out.
UniProt P35222, whole entry: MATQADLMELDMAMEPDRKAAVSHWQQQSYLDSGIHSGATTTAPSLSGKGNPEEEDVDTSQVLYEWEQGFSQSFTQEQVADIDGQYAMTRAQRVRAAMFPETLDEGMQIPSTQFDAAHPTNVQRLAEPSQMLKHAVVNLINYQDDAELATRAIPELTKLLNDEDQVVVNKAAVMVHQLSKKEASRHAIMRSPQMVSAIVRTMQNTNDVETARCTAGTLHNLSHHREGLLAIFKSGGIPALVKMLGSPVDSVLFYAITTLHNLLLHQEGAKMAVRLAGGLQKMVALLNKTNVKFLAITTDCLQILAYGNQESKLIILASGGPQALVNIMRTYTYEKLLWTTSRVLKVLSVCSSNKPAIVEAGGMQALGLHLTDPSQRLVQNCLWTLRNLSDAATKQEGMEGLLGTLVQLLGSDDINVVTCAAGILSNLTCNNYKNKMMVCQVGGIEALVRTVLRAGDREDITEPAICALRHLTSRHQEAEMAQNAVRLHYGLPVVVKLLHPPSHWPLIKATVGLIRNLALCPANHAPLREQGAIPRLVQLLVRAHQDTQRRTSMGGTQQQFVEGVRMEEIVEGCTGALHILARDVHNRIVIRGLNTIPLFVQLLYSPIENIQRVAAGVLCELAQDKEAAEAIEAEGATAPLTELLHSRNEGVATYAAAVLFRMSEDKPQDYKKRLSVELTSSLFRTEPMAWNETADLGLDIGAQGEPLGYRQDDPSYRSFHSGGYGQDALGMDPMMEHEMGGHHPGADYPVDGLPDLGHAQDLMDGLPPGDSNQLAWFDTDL

According to patent US20240360179A1, “STAPLED PEPTIDES AND METHODS THEREOF” (FOG PHARMACEUTICALS, INC., priority 2021, published 2024):

What was measured:
[1] = biological target: beta-catenin/TCF4 interaction (Homo sapiens, UniProt P35222); assay: cell-based; parameters: host or cells: HEK293; settings: NanoBRET Abs IC50 (uM)
[2] = biological target: T1, full-length B-Catenin (Uniprot ID P35222) (Homo sapiens, UniProt P35222); assay: biochemical; format: binding; settings: beta-Catenin FP IC50 (nM), competition fluorescence polarization
T1 construct: 10 nM full-length B-Catenin (Uniprot ID P35222)

Structure (SMILES) | IC50 [1] [µM] | IC50 [2] [nM]
CC(=O)N1CCC[C@]12CC=CCCCC1(CCCC=CCCCOC(=O)N3CC[C@@]4(C3)NC(=O)[C@H](CCCCNC(=O)CC[C@@H](C(=O)N[C@@H](C)C(N)=O)NC(=O)[C@H](Cc3csc5ccccc35)NC(=O)[C@H](Cc3ccsc3)NC4=O)NC(=O)[C@H](Cc3ccccc3)NC(=O)[C@H](C)NC(=O)C(C)(C)NC(=O)[C@H](Cc3cccc(C(=O)O)c3)NC(=O)[C@H](CC(N)=O)NC1=O)NC(=O)[C@H](CC(C)(C)C)NC(=O)[C@H](CC(=O)O)NC2=O (relative stereo) [I-165, Ac-PL3-Asp-Npg-B5-Asn-3COOHF-Aib-Ala-Phe-Lys*3-PyrS2-3Thi-BztA-GlnR*3-Ala-NH2] | 3 to 10 | < 50
CC(=O)N1CCC[C@]12CC=CCCCC1(CCCC=CCCCOC(=O)N3CC[C@@]4(C3)NC(=O)[C@H](CCCCNC(=O)CC[C@@H](C(=O)N[C@@H](C)C(N)=O)NC(=O)[C@H](Cc3csc5ccccc35)NC(=O)[C@H](Cc3ccsc3)NC4=O)NC(=O)[C@H](Cc3ccccc3)NC(=O)[C@H](C)NC(=O)C(C)(C)NC(=O)[C@H](Cc3cccc(C(=O)O)c3)NC(=O)[C@H](CO)NC1=O)NC(=O)[C@H](CC(C)(C)C)NC(=O)[C@H](CC(=O)O)NC2=O (relative stereo) [I-166, Ac-PL3-Asp-Npg-B5-Ser-3COOHF-Aib-Ala-Phe-Lys*3-PyrS2-3Thi-BztA-GlnR*3-Ala-NH2] | 3 to 10 | 50 to 200
CC(=O)N1CCC[C@]12CC=CCCCC1(CCCC=CCCCOC(=O)N3CC[C@@]4(C3)NC(=O)[C@H](CCCCNC(=O)CC[C@@H](C(=O)N[C@@H](C)C(N)=O)NC(=O)[C@H](Cc3csc5ccccc35)NC(=O)[C@H](Cc3ccsc3)NC4=O)NC(=O)[C@H](Cc3ccccc3)NC(=O)[C@H](C)NC(=O)C(C)(C)NC(=O)[C@H](Cc3cccc(C(=O)O)c3)NC(=O)[C@H](CCO)NC1=O)NC(=O)[C@H](CC(C)(C)C)NC(=O)[C@H](CC(=O)O)NC2=O (relative stereo) [I-168, Ac-PL3-Asp-Npg-B5-Hse-3COOHF-Aib-Ala-Phe-Lys*3-PyrS2-3Thi-BztA-GlnR*3-Ala-NH2] | > 10 | 200 to 750
CC(=O)N1CCC[C@]12CC=CCCCC1(CCCC=CCCCOC(=O)N3CC[C@@]4(C3)NC(=O)[C@H](CCCCNC(=O)CC[C@@H](C(=O)N[C@@H](C)C(N)=O)NC(=O)[C@H](Cc3csc5ccccc35)NC(=O)[C@H](Cc3ccsc3)NC4=O)NC(=O)[C@H](Cc3ccccc3)NC(=O)[C@H](C)NC(=O)C(C)(C)NC(=O)[C@H](Cc3cccc(C(=O)O)c3)NC(=O)[C@H]([C@H](C)O)NC1=O)NC(=O)[C@H](CC(C)(C)C)NC(=O)[C@H](CC(=O)O)NC2=O (relative stereo) [I-169, Ac-PL3-Asp-Npg-B5-aThr-3COOHF-Aib-Ala-Phe-Lys*3-PyrS2-3Thi-BztA-GlnR*3-Ala-NH2] | > 10 | 50 to 200
CNC(=O)C[C@@H]1NC(=O)C2(CCCC=CCCCOC(=O)N3CC[C@@]4(C3)NC(=O)[C@H](CCCCNC(=O)CC[C@@H](C(=O)N[C@@H](C)C(N)=O)NC(=O)[C@H](Cc3csc5ccccc35)NC(=O)[C@H](Cc3ccsc3)NC4=O)NC(=O)[C@H](Cc3ccccc3)NC(=O)[C@H](C)NC(=O)C(C)(C)NC(=O)[C@H](Cc3cccc(C(=O)O)c3)NC1=O)CCCC=CC[C@]1(CCCN1C(C)=O)C(=O)N[C@@H](CC(=O)O)C(=O)N[C@@H](CC(C)(C)C)C(=O)N2 (relative stereo) [I-170, Ac-PL3-Asp-Npg-B5-MeAsn-3COOHF-Aib-Ala-Phe-Lys*3-PyrS2-3Thi-BztA-GlnR*3-Ala-NH2] | > 10 | 50 to 200
CC(=O)N1CCC[C@]12CCCCCCC1(CCCCCCCCOC(=O)N3CC[C@@]4(C3)NC(=O)[C@H](CCCCNC(=O)CC[C@@H](C(=O)N[C@@H](C)C(N)=O)NC(=O)[C@H](Cc3csc5ccccc35)NC(=O)[C@H](Cc3ccsc3)NC4=O)NC(=O)[C@H](Cc3ccccc3)NC(=O)[C@H](C)NC(=O)C(C)(C)NC(=O)[C@H](Cc3cccc(C(=O)O)c3)NC(=O)[C@H](CC(=O)O)NC1=O)NC(=O)[C@H](CC(C)(C)C)NC(=O)[C@H](CC(N)=O)NC2=O (relative stereo) [I-171, Ac-PL3-Asn-Npg-B5-Asp-3COOHF-Aib-Ala-Phe-Lys*3-PyrS2-3Thi-BztA-GlnR*3-Ala-NH2] | > 10 | 50 to 200
CC(=O)N1CCC[C@]12CCCCCCC1(CCCCCCCCOC(=O)N3CC[C@@]4(C3)NC(=O)[C@H](CCCCNC(=O)CC[C@@H](C(=O)N[C@@H](C)C(N)=O)NC(=O)[C@H](Cc3csc5ccccc35)NC(=O)[C@H](Cc3ccsc3)NC4=O)NC(=O)[C@H](Cc3ccccc3)NC(=O)[C@H](C)NC(=O)C(C)(C)NC(=O)[C@H](Cc3cccc(C(=O)O)c3)NC(=O)[C@H](CC(N)=O)NC1=O)NC(=O)[C@H](CC(C)(C)C)NC(=O)[C@H](CC(=O)O)NC2=O (relative stereo) [I-177, Ac-PL3-Asp-Npg-B5-Asn-3COOHF-Aib-Ala-Phe-Lys*3-PyrS2-3Thi-BztA-GlnR*3-Ala-NH2] | > 10 | 200 to 750
CC(=O)N1CCC[C@]12CC=CCCCC1(CCCC=CCCCOC(=O)N3CC[C@@]4(C3)NC(=O)[C@H](CCCCNC(=O)CCC[C@@H](C(=O)N[C@@H](C)C(N)=O)NC(=O)[C@H](Cc3csc5ccccc35)NC(=O)[C@H](Cc3ccsc3)NC4=O)NC(=O)[C@H](Cc3ccccc3)NC(=O)[C@H](C)NC(=O)[C@H](C)NC(=O)[C@H](Cc3cccc(C(=O)O)c3)NC(=O)[C@H](CC(=O)O)NC1=O)NC(=O)[C@H](CC(C)(C)C)NC(=O)[C@H](CC(=O)O)NC2=O (relative stereo) [I-183, Ac-PL3-Asp-Npg-B5-Asp-3COOHF-Ala-Ala-Phe-Lys*3-PyrS2-3Thi-BztA-hGlnR*3-Ala-NH2] | 3 to 10 | < 50
CC(=O)N1CCC[C@]12CC=CCCCC1(CCCC=CCCCOC(=O)N3CC[C@@]4(C3)NC(=O)[C@H](CCCCN(C(C)C)C(=O)CCC[C@@H](C(=O)N[C@@H](C)C(N)=O)NC(=O)[C@H](Cc3csc5ccccc35)NC(=O)[C@H](Cc3ccsc3)NC4=O)NC(=O)[C@H](Cc3ccccc3)NC(=O)[C@H](C)NC(=O)[C@H](C)NC(=O)[C@H](Cc3cccc(C(=O)O)c3)NC(=O)[C@H](CC(=O)O)NC1=O)NC(=O)[C@H](CC(C)(C)C)NC(=O)[C@H](CC(=O)O)NC2=O (relative stereo) [I-187, Ac-PL3-Asp-Npg-B5-Asp-3COOHF-Ala-Ala-Phe-iPrLys*3-PyrS2-3Thi-BztA-hGlnR*3-Ala-NH2] | 3 to 10 | < 50
CC(=O)N1CCC[C@]12CC=CCCCC1(CCCC=CCCCOC(=O)N3CC[C@@]4(C3)NC(=O)[C@H](CCCCN(C(C)C)C(=O)CCC[C@@H](C(=O)N[C@@H](C)C(N)=O)NC(=O)[C@H](Cc3csc5ccccc35)NC(=O)[C@H](Cc3ccccc3C(F)(F)F)NC4=O)NC(=O)[C@H](Cc3ccccc3)NC(=O)[C@H](C)NC(=O)[C@H](C)NC(=O)[C@H](Cc3cccc(C(=O)O)c3)NC(=O)[C@H](CC(=O)O)NC1=O)NC(=O)[C@H](CC(C)(C)C)NC(=O)[C@H](CC(=O)O)NC2=O (relative stereo) [I-188, Ac-PL3-Asp-Npg-B5-Asp-3COOHF-Ala-Ala-Phe-iPrLys*3-PyrS2-2F3MeF-BztA-hGlnR*3-Ala-NH2] | 3 to 10 | < 50
